# Ab-95 light chain CDR variants: yeast mating affinities

Binding partner: SARS-CoV-2 spike HR2 peptide, sequence PDVDLGDISGINAS.

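The library (AAYL52) carries one to three amino acid substitutions per variant, with no insertions or deletions. The assay is AlphaSeq: two haploid yeast populations carry antibody and antigen on their surface. After mating in shaken culture at 30 °C for 16 h, diploids were selected and their barcode pairs sequenced. A regression on co-assayed BCL2-family reference pairs converts the normalised counts of each replicate to an apparent Kd. Each pool was mated in three replicate cultures.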

The variants keep the heavy chain, the linker and the frameworks of Ab-95 (scFv order VH, the linker GGGGSGGGGSGGGGS, VL).
VH: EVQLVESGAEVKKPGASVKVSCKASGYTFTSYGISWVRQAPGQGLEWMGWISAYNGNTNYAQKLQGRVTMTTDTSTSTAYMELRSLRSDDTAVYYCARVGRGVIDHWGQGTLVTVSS
VL: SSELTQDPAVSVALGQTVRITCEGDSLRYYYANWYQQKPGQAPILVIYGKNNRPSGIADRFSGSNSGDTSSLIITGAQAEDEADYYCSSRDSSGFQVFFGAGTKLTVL

The parent's light chain CDRs are EGDSLRYYYAN, GKNNRPS, SSRDSSGFQVF; each variant's own CDRs replace them letter for letter. Numbers give log10(Kd / nM), so 0 is 1 nM and 3 is 1 µM. Smaller is tighter. Replicates are averaged; those with no signal do not enter the mean. "nd" means that the variant was in the library but no mating with the target was seen in that replicate; the authors take this as a sign of poor binding, and no number exists. Entries are sorted by rising average, undetected variants last. In this assay the parent's reference entry averaged 2.31; its copy inside this library read 2.25.

"log10 Kd, replicates",mean log10 Kd (nM),empty controls,CDR-L1,CDR-L2,CDR-L3
1.36 1.40 1.00,1.25,3 of 9 (3.86),EGDSLRWYEAN,GKNNRPS,SSRDSSGFQVF
1.56 1.43 1.05,1.35,6 of 9 (4.33),EGDSLRYYEAN,GKNNRLS,SSRDSSGFQVF
1.62 1.19 1.46,1.42,0 of 9,EGDSLRYQYAN,GKNTRPS,SSRDRSGFQVF
1.71 1.62 0.98,1.44,2 of 9 (3.71),EGDILRYQYAN,GKNNRPS,SSHDSSGFQVF
1.78 1.58 1.20,1.52,1 of 9 (3.94),EGDSLRYHNAN,GKNNRPS,SSRDSYGFQVF
2.16 1.49 1.70,1.79,5 of 9 (4.55),EGDSLRYEYAN,GKNNRPS,SNRDSSVFQVF
2.27 1.93 1.89,2.03,3 of 9 (4.46),EGDSLRDYYAN,GWNQRPS,SSRDSSGFQVF
2.64 2.00 1.47,2.04,0 of 9,EGDSLRYYHAN,GANNRPK,SSRDSSGFQVF
2.25 2.22 2.21,2.23,4 of 9 (3.65),NGDSLRYYYAN,GKNNRPS,SSRHSSGFWVF
2.59 2.38 2.13,2.37,7 of 9 (4.02),EGDSLRYYYAN,GKNNRPN,SSRASSGFPVF
2.61 2.26 2.32,2.40,2 of 9 (4.04),EGDSLRYYYAN,GKDNRPS,SNRDSSGNQVF
2.48 2.55 2.20,2.41,1 of 9 (4.49),EGDSLRYYYAN,GKNNRPN,SCRDSSGFQVE
2.90 2.54 2.03,2.49,3 of 9 (3.59),EGDSLYPYYAN,GKNNRPS,SSRDPSGFQVF
2.51 2.54 2.46,2.50,2 of 9 (4.31),HGDSLRYYYAN,GYNNRPS,SSRDESGFQVF
2.59 2.48 nd,2.53,4 of 9 (3.70),EGDSLCYYYAN,GKNNRPS,ASRFSSGFQVF
2.77 2.75 2.69,2.73,6 of 9 (4.26),EGDSLRAYYAN,GKNNRPS,SSRDSPGLQVF
2.54 nd 3.11,2.83,2 of 9 (3.92),EGDSLRYYYAT,GENNRPS,SSRDSSGFQVH
2.47 3.13 3.17,2.92,0 of 9,EGRSLRYYYAN,GKNNRPS,SSRDSSGFQCW
3.07 nd nd,3.07,1 of 9 (4.56),EGDSARCYYAN,GKNNRPS,SGRDSSGFQVF
3.50 2.87 2.91,3.09,1 of 9 (4.45),EGDSLRYYYNN,GKNNRPT,SSRDSSGFQVY
nd nd 3.23,3.23,1 of 9 (3.25),HGDSLRYYLAQ,GKNNRPS,SSRDSSGFQVF
3.23 3.40 3.21,3.28,3 of 9 (4.49),EGDSLCYYYAN,GKNNRPH,SSRDSSGFQVH
3.65 3.76 3.26,3.56,2 of 9 (4.61),EGDSIRYYYAN,GKNDRPS,SSRDSGGFQVF
3.78 nd nd,3.78,3 of 9 (4.10),EGDSLRYYYTN,RKNNRPQ,SSRDSSGFQVF
3.78 4.29 3.28,3.78,3 of 9 (3.81),DGDSLRYYYAN,GKNNSWS,SSRDSSGFQVF
3.79 3.80 nd,3.80,6 of 9 (4.22),EGDSSRDYYAN,GKNNRPS,SSFDSSGFQVF
3.34 4.36 3.97,3.89,2 of 9 (4.05),EGDSLRYYYAN,GKNNLPS,CSRDSSGFQVM
4.06 nd nd,4.06,3 of 9 (3.85),EGDSLRYYYLN,GEMNRPS,SSRDSSGFQVF
4.10 4.12 nd,4.11,3 of 9 (3.87),EGDYLRYYYAN,GKHNRPS,SSRDSSFFQVF
3.47 4.50 4.37,4.11,1 of 9 (4.01),SGDSLRYYYAN,GKHNRPS,SSRDSGGFQVF
4.14 nd nd,4.14,1 of 9 (3.67),ENDSLRYYYAN,GKNNRPS,SSRDSSGFTRF
3.53 5.48 3.91,4.31,7 of 9 (4.27),EGDSLRYKYAN,GKNNRPS,LSRDSSSFQVF
4.96 nd nd,4.96,1 of 9 (2.44),EGDSLRYYYAN,GKNNRPS,VERRSSGFQVF
5.53 4.63 nd,5.08,3 of 9 (4.93),EGDSLRYYYAN,GKNNRPS,TSRDSSPFQVF
nd nd nd,nd,0 of 9,EGDSLRYYYAW,GKNNRPS,CSRDSSGFQMF

A selection of 3 entries from above:

CDR-L1,CDR-L2,CDR-L3,"log10 Kd, replicates",mean log10 Kd (nM),empty controls
EGDILRYQYAN,GKNNRPS,SSHDSSGFQVF,1.71 1.62 0.98,1.44,2 of 9 (3.71)
HGDSLRYYLAQ,GKNNRPS,SSRDSSGFQVF,nd nd 3.23,3.23,1 of 9 (3.25)
EGDSLYPYYAN,GKNNRPS,SSRDPSGFQVF,2.90 2.54 2.03,2.49,3 of 9 (3.59)

Three control strains display no target. For library AAYL52, 28% of the pairings with them gave a signal, with a median of 3.91 and one signal in twenty below 2.90, so weak values seen in few replicates may be background. The control count says in how many pairings with the empty strains this scFv gave a signal, with their mean in brackets.

The measurements come from Engelhart et al. 2022 (doi:10.1038/s41597-022-01779-4) through the FLAb antibody collection.